Assay results reported in patent US6355823B1 (Board of Regents, The University of Texas System, priority 1999, dated 2002).
pIC50: −log10 of the molar value.

By UniProt entry, the sequences of proteins in these tests, tags left out. Where a name states a change or a piece, a line headed by the entry shows the natural chain unless it says otherwise.
UniProt G1SIP4: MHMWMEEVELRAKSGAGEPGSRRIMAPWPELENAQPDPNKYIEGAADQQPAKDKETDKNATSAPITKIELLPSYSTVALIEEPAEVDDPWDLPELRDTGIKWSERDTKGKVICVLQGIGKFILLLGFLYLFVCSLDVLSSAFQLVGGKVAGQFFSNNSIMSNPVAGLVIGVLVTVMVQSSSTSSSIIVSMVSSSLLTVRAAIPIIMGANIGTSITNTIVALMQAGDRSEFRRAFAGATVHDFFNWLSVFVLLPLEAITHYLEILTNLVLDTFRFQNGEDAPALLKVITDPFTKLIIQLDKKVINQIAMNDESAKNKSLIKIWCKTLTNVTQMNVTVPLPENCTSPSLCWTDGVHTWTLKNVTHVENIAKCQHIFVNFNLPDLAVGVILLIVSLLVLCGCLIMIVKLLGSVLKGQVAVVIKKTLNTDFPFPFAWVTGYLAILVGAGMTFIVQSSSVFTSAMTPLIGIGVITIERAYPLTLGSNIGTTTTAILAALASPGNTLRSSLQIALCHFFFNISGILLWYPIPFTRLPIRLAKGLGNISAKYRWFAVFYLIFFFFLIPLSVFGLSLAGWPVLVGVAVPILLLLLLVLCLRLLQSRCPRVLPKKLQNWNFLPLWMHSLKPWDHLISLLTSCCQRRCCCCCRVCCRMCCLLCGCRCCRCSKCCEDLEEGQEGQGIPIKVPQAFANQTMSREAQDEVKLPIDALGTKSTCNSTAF

Key:
[1] = molecular target: intestinal brush border membrane alkaline phosphatase (Oryctolagus cuniculus, UniProt G1SXE4); assay: Inhibition of alkaline phosphatase hydrolysis of 4-nitrophenylphosphate; type: biochemical
[2] = molecular target: intestinal BBM Na/phosphate co-transporter (Oryctolagus cuniculus, UniProt G1SIP4); assay: [3H]2′-PP binding to Ca-BBM protein; settings: read-out: concentration inhibiting 50% of Na-dependent 2′-PP bound to Ca-BBM; n=3

Substance: 1-[2,6-dihydroxy-4-(phosphonoimino)phenyl]-3-4-hydroxyphenyl)-1-propanone
- substrate of alkaline / apical membrane phosphatase [1]: not a substrate

Substance: Difluorophosphate
- pIC50 [2]: 4.32
